# Measured values from patent US9789089B2 (Gilead Sciences, Inc., priority 2013, dated 2017).
# Test: Test B: Cytotoxicity assay
# Type: cell-based
# Details: human, uninfected MT-4 cells, same protocol as Test A, CellTiter-Glo
# Method: For the antiviral assay, 40 μL of 1× test concentration of 3-fold serially diluted compound in culture medium with 10% FBS was added to each well of a 384-well plate (10 concentrations) in quadruplicate. MT-4 cells were next mixed with HIV-IIIb at an m.o.i of 0.003 for 1 hour, after which time 35 μL of virus/cell mixture (2000 cells) was immediately added to each well containing 40 μL of diluted compound. The plates were then incubated at 37° C. for 5 days. After 5 days of incubation, 25 μl of 2× concentrated CellTiter-Glo™ Reagent (catalog #G7571, Promega Biosciences, Inc., Madison, Wis.) was added to each well containing MT-4 cells. Cell lysis was carried out by incubating at room temperature for 10 min and then chemiluminescence was read.
# Test B:Cytotoxicity assay
# Compound cytotoxicity and the corresponding CC50 values was determined using the same protocol as described in the antiviral assay (Test A) except that uninfected cells were used.
row,SMILES,CC50 at 5 days [µM]
1,"COc1ccc(-n2ccnc2[C@@H](Cc2cc(F)cc(F)c2)NC(=O)Cc2c[nH]c3ccc(O)cc23)cc1 [Compound 8, (R)—N-(2-(3,5-difluorophenyl)-1-(1-(4-methoxyphenyl)-1H-imidazol-2-yl)ethyl)-2-(5-hydroxy-1H-indol-3-yl)acetamide]",44.3
2,"Cc1ccccc1-c1scnc1C(Cc1cc(F)cc(F)c1)NC(=O)Cc1c[nH]c2ccc(O)cc12 (stereo not drawn) [Compound 13E, N-(2-(3,5-difluorophenyl)-1-(5-(o-tolyl)thiazol-4-yl)ethyl)-2-(5-hydroxy-1H-indol-3-yl)acetamide]",25.4
3,"Cn1cnc(C(Cc2cc(F)cc(F)c2)NC(=O)Cc2c[nH]c3ccc(O)cc23)c1-c1ccc(Cl)cc1 (stereo not drawn) [Compound 31, N-(1-(5-(4-chlorophenyl)-1-methyl-1H-imidazol-4-yl)-2-(3,5-difluorophenyl)ethyl)-2-(5-hydroxy-1H-indol-3-yl)acetamide]",25.4
4,"O=C(Cc1c[nH]c2ccc(O)cc12)N[C@H](Cc1cc(F)cc(F)c1)c1nocc1-c1ccc(Cl)cc1 [Compound 28B, (R)—N-(1-(4-(4-chlorophenyl)isoxazol-3-yl)-2-(3,5-difluorophenyl)ethyl)-2-(5-hydroxy-1H-indol-3-yl)acetamide]",11.6
5,"O=C(Cc1c[nH]c2ccc(O)cc12)N[C@@H](Cc1cc(F)cc(F)c1)c1nocc1-c1ccc(Cl)cc1 [Compound 26, (S)—N-(1-(4-(4-chlorophenyl)isoxazol-3-yl)-2-(3,5-difluorophenyl)ethyl)-2-(5-hydroxy-1H-indol-3-yl)acetamide]",19.5
6,"COc1ccc(-n2ccnc2[C@H](Cc2cc(F)cc(F)c2)NC(=O)Cc2c[nH]c3ccc(O)cc23)cc1 [Compound 7, (S)—N-(2-(3,5-difluorophenyl)-1-(1-(4-methoxyphenyl)-1H-imidazol-2-yl)ethyl)-2-(5-hydroxy-1H-indol-3-yl)acetamide]",> 47.1
